Laboratory results as given in patent publication US20020192703A1, “Immunoassay reagents and methods for determination of LSD and LSD metabolites” (priority 1995, published 2002).

Experiments:
[1] = system: Monoclonal antibody 19A7 specific for LSD; test: Immunoaffinity extraction from urine with antibody 19A7 on Sepharose 4B; conditions: immunoaffinity extract of urine analysed by HPLC/MS/MS
[2] = system: LSD specific monoclonal antibody raised against the immunogen of Example 4; test: CEDIA assay for LSD, dose response, antibody raised against immunogen of Example 4; conditions: for Rate: absorbance rate at 570 nm
[3] = system: LSD specific monoclonal antibody raised against the immunogen of Example 6; test: CEDIA assay for LSD, dose response, antibody raised against immunogen of Example 6
[4] = antibodies raised against conjugate of Example 4 or Example 6

| Structure (SMILES) | recognition by the 19A7 antibody [1] | Rate ([2]; LSD dose 0.3 ng/ml) [mAU/min] | Rate ([2]; LSD dose 0.5 ng/ml) [mAU/min] | Rate ([2]; LSD dose 0.7 ng/ml) [mAU/min] | Rate ([2]; LSD dose 2.0 ng/ml) [mAU/min] | Rate ([2]; LSD dose 4.0 ng/ml) [mAU/min] | Rate ([2]; LSD dose 100 ng/ml) [mAU/min] | LSD dose at which antibody binding of LSD-enzyme donor conjugates is detectably inhibitable [2, 4] [ng/mL] | LSD dose at which binding is inhibitable at about the 50% maximum level [2, 4] | affinity of the antibodies for LSD ([2]; calculated from effective concentrations of assay components, antibodies of Examples 9 and 10) | Rate ([3]; LSD dose 0.3 ng/ml) [mAU/min] | Rate ([3]; LSD dose 0.5 ng/ml) [mAU/min] | Rate ([3]; LSD dose 0.8 ng/ml) [mAU/min] | Rate ([3]; LSD dose 1.6 ng/ml) [mAU/min] | Rate ([3]; LSD dose 4.0 ng/ml) [mAU/min] |
| --- | --- | --- | --- | --- | --- | --- | --- | --- | --- | --- | --- | --- | --- | --- | --- |
| CCN(CC)C(=O)[C@@H]1C=C2c3cc(O[C@@H]4O[C@H](C(=O)O)[C@@H](O)[C@H](O)[C@H]4O)cc4[nH]cc(c34)C[C@H]2N(C)C1 [13-hydroxy LSD glucuronide] | recognizes |  |  |  |  |  |  |  |  |  |  |  |  |  |  |
| CCN(CC)C(=O)[C@@H]1C=C2c3ccc(O[C@@H]4O[C@H](C(=O)O)[C@@H](O)[C@H](O)[C@H]4O)c4[nH]cc(c34)C[C@H]2N(C)C1 [14-hydroxy LSD glucuronide] | recognizes |  |  |  |  |  |  |  |  |  |  |  |  |  |  |
| CCN(CC)C(=O)[C@@H]1C=C2c3cccc4[nH]cc(c34)C[C@H]2N(C)C1 [LSD, lysergic acid diethylamide] |  | 132.2 | 145.0 | 155.3 | 207.0 | 224.8 | 228.7 | 0.3 | about 1 ng/mL | at least 10^10 M^−1 | 67.6 | 69.9 | 72.6 | 80.8 | 107.4 |
